Test system: gastric tissue
Experiment: Gastric toxicity in rats given ethanol 50% by os (gastric lesions)
Type: in vivo
Conditions: Sprague-Dawley male rats (n=10), 10 mg/Kg i.p. as free base, ethanol 50% by os 30 minutes later; Controls 50
Method: 5 groups of Sprague-Dawley male rats (n=10), were fasted for 24 hours. 4 groups were then respectively treated i.p. with Sildenafil, Zaprinast, and the relevant nitrate salts of said drugs. One group was not treated and was tha control group. 30 minutes later 1 ml of ethanol 50% in water was given by os to the animals.
One hour later the animals were sacrificed. The stomach was removed and the gastric tissue was macroscopically examined.
The results are reported in Table X. In the Table the gastric toxicity given as % incidence is the number of rats in a group showing gastric lesions.

Sildenafil Nitrate Salt [Sildenafil.HNO3]
Gastric toxicity (% incidence): 20 % incidence

Source: patent publication US6645965B1, “Nitrate salts of antihypertensive medicines” (priority 1998, dated 2003)
